# Assay results from patent US5817776A, “Amino acid analogs for tumor imaging” (priority 1996, dated 1998).
# Key:
# in vivo = conditions: rat, iv
# Procedure: In vivo distribution of a compound of the invention, [^18 F]-1-amino-3-fluoro-cyclobutane-1-carboxylic acid (FACBC) was measured in rats having an implanted gliosarcoma. Accumulation in various tissue was measured at 5 min and 60 min post-administration.
# Distribution of Radioactivity in Tissues of Unfasted Male
# Fisher Rats following Intravenous Administration of [^18 F]FACBC
# normal tissue = conditions: in vivo; cited from earlier work
smiles,measurement,setting,value
"OC[C@H]1OC(O)[C@H]([18F])[C@@H](O)[C@@H]1O (stereo partly drawn) [[^18 F]2-FDG, [^18 F]-2-fluoro-2-deoxy-D-glucose, reference compound]",tissue uptake at 5 min,in vivo,1.29 %ID/g
same,tissue uptake at 1 h,in vivo,1.05 %ID/g
same,uptake in infectious tissue and in the bladder (in words),normal tissue,high uptake of the 2-FDG radioactivity in infectious tissue and in the bladder
same,uptake in normal tissue (in words),normal tissue,high uptake in normal tissue
